Test results from ChEMBL document CHEMBL3132836, “Structure-based drug design of chromone antagonists of the adenosine A2A receptor” (Medchemcomm, 2014).

System: CHO
Assay: Selectivity ratio of Ki for human adenosine A1 receptor expressed in CHO cells to Ki for human adenosine A2A receptor expressed in HEK293 cells
Assay type: cell-based

CCOc1cc2occ(-c3nc(C)cs3)c(=O)c2cc1CC
Ratio Ki: > 100
